{"source": "patent US4088642A", "about": "(priority 1973, dated 1978)", "experiment": "Solubility in water"}
{"substance": "Polymeric Peroxide of trans-4,4'-Azobis(4-cyanovaleric acid) Terminated with Sodium Carboxylate Groups [Example 3]", "values": [{"measurement": "solubility in water", "value": "partially soluble in water"}]}
